91 compounds from PubChem BioAssay AID1777 (Sanford-Burnham Center for Chemical Genomics, 2009) can be followed below.

Sequences of proteins named here, by UniProt entry; tags and fusion partners are left off. A change or cut given only in a name is not applied to a line headed by its entry.
UniProt P41145: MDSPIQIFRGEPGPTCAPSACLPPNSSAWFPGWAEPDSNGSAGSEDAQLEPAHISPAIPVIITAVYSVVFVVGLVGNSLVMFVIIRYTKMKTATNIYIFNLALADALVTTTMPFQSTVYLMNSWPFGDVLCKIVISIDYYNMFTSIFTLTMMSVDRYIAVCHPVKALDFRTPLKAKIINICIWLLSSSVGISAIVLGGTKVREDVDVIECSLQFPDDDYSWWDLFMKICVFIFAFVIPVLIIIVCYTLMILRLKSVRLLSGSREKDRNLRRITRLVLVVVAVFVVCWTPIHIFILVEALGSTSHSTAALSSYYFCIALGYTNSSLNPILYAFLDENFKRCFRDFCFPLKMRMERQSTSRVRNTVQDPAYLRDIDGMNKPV

The other results are listed elsewhere or left out. Potency and affinity values are given separately. Calls of active or inactive are those of the source. Rule as the data show it: active = activation above about 50% (passing the limit was not always enough); inactive = the rest.

The experiment deals with Kappa-type opioid receptor (Homo sapiens) (UniProt P41145). The experiment in a line: kappa opioid receptor activators – cell-based, luminescence, uHTS, primary screen (AID 1777). The settings on record: KOR beta-arrestin recruitment, at 10 µM, stronger effect = higher value.
`CCOCN(C(=O)Cn1c(COC)nc2ccccc21)c1c(C)cccc1CC`: the activation was inactive: -2.7%.

In the case of `Cn1c(CNc2nc3ccccc3n2CCN2CCCCC2)nc2ccccc21`, the activation was inactive: 1.7%.

Consider `Cc1ccc2c(c1)C1CN(C)CCC1N2C(=O)Cn1nnc(-c2ccccc2F)n1` (stereo unspecified), for which the activation is inactive: 1.1%.

With `Cc1cc(NC(=O)Cn2cnc3c2c(=O)n(C)c(=O)n3C)n(-c2ccccc2)n1`, the activation is inactive: -3.7%.

`O=C(NCCn1c(-c2ccncc2)nc2ccccc21)[C@H]1CCCN1c1nc(CN2CCCCC2)cs1`: the activation is inactive: -2.9%.

`CC(C)C[C@H](NC(=O)N1CCn2c1nc1ccccc12)C(=O)NCc1ccco1`: the activation is inactive: -1.3%.

`O=P1(Nc2ccc(Br)cn2)COc2ccccc2OC1`: the activation is inactive: -3.2%.

Turning to `Cc1ccc2c(c1)C1CN(C)CCC1N2C(=O)c1ccccc1NS(=O)(=O)c1ccc(F)cc1C` (stereo unspecified), the activation was inactive: 10.6%.

For `O=[As](O)(c1cccs1)c1cccs1`, the activation was inactive: -1.8%.

For `Cc1ccc(C(=O)N(C)c2ccc(OCC(=O)N3c4ccc(C)cc4C4CN(C)CCC43)cc2)cc1` (stereo unspecified), the activation was inactive: 2.2%.

As for `Cc1ccc(OCC(=O)OC2CN3CCC2CC3)cc1` (stereo unspecified), the activation was inactive: -3.7%.

For the compound `CCc1ccccc1NC(=O)CSc1nc2ccccc2n1CC(=O)N1CCCC1`, the activation is inactive: -4.3%.

With `CCC(=O)N1CCn2c1nc1ccccc12`, the activation was inactive: 3.1%.

Regarding `CCN(CC)c1ccc(NC(=O)Cn2c(C(C)NC(=O)c3ccccc3)nc3ccccc32)cc1` (stereo unspecified), the activation is inactive: 0.9%.

Turning to `Cc1ccc(C(=O)OC2CN3CCC2CC3)cc1` (stereo unspecified), the activation was inactive: -3.1%.

`CC1CCC(C(C)C)C(OP(=O)(Nc2ccccn2)c2ccccc2)C1` (stereo unspecified): the activation is inactive: 2.2%.

On to `CCN(CC)C(=O)Cn1c(=O)n(C)c2ccccc21`, for which the activation was inactive: 0.6%.

As to `Cc1nn(-c2ccccc2)c2c1P(=O)(N1CCOCC1)N(C)C(c1ccccc1)=N2` (stereo unspecified), the activation is inactive: -0.2%.

With `Cc1cccc(Cn2c(=O)c3c(nc4n3CCN4Cc3ccco3)n(C)c2=O)c1`, the activation is inactive: -1.7%.

`O=C(Cn1c(C(F)(F)F)nc2ccccc21)NCCN1CCCC1`: the activation was inactive: 1%.

In the case of `Cc1cccc(C)c1NC(=O)N1CCC(n2c(=O)[nH]c3ccccc32)CC1`, the activation is inactive: 0.5%.

With `c1ccc2c(c1)nc(-c1ccncc1)n2CCNc1nc(CN2CCCCC2)cs1`, the activation is inactive: -2.5%.

With `CCCC(=O)Nc1ccc(C(=O)/C=C/c2ccc(SC)cc2)cc1`, the activation is inactive: -2.4%.

As to `CCn1cc(Cl)c(C(=O)Nc2nc3ccccc3n2CCN2CCCCC2)n1`, the activation is inactive: -1.7%.

Turning to `O=C(Cn1c(=O)n(CC2CS2)c2ccccc21)N1CCCCCC1` (stereo unspecified), the activation is inactive: -9.9%.

On to `CC(C)(C)NC(=O)Cn1c(SCC(=O)NCc2cccs2)nc2ccccc21`, for which the activation was inactive: 8.1%.

On to `O=C(Cn1c(SCC(=O)N2CCc3ccccc32)nc2ccccc21)NC1CCCC1`, for which the activation is inactive: 18.3%.

Consider `O=C(Cn1cnc2ccccc21)Nc1cc(C(F)(F)F)ccc1N1CCOCC1`, for which the activation was inactive: 14.6%.

For the compound `COc1cc2c(cc1NC(=O)Cn1cnc3c1c(=O)n(C)c(=O)n3C)oc1ccccc12`, the activation is inactive: -1.6%.

For `COc1ccc(Cl)cc1NC(=O)Cn1c(NCCO)nc2ccccc21`, the activation is inactive: 2.4%.

On to `O=C(Cn1c(COc2ccccc2)nc2ccccc21)Nc1cc(Cl)c(Cl)cc1Cl`, for which the activation is inactive: 8.6%.

Turning to `CCN1C(=O)CC(N2CCC(Nc3ccc(OC)cc3)CC2)C1=O` (stereo unspecified), the activation was inactive: -4.2%.

As for `CC(=O)Nc1ccc(NC(=O)C2CC(=O)Nc3nc4ccccc4n32)cc1` (stereo unspecified), the activation is inactive: -1.9%.

For `O=C(CSc1nc2ccccc2n1CC(=O)NCc1ccccc1)NCc1ccco1`, the activation was inactive: 3.4%.

Turning to `Cn1c(=O)c2ncn(CC(=O)NCCOc3ccc(C(C)(C)C)cc3)c2n(C)c1=O`, the activation is inactive: -1.5%.

Regarding `O=S(=O)(c1ccc(Br)cc1)N1CCn2c(nc3ccccc32)C1`, the activation was inactive: -1.1%.

For `Cn1c(=O)c2c(ncn2CC(=O)N/N=C/C=C/c2ccccc2)n(C)c1=O`, the activation was inactive: -4.4%.

With `O=S(=O)(c1ccc(Cl)c(Cl)c1)N1CCc2nc3ccccc3n2CC1`, the activation was inactive: -1.3%.

Turning to `CC1CC(C)CN(Cc2nc3c(c(=O)n(C)c(=O)n3C)n2CCN2CCOCC2)C1` (stereo unspecified), the activation was inactive: 6.4%.

Take `O=S(=O)(Nc1ccc2c(c1)nc1n2CCN(Cc2ccccc2)C1)c1ccccc1`: the activation was inactive: -5.2%.

In the case of `O=C(/C=C/c1ccccc1)OC1CN2CCC1CC2` (stereo unspecified), the activation was inactive: 0.7%.

For the compound `COc1cccc(NC(=O)Cn2c(SCC(=O)N3CCOCC3)nc3ccccc32)c1`, the activation was inactive: -4.6%.

In the case of `COc1ccc(Cc2nc3ccccc3n2CC(=O)N/N=C/c2ccc(C)cc2O)cc1OC`, the activation is inactive: -0.8%.

In the case of `CCN(c1ccccc1)S(=O)(=O)c1ccc(OC)c(NC(=O)Cn2cnc3c2c(=O)n(C)c(=O)n3C)c1`, the activation was inactive: -5.9%.

As for `CCc1cccc(NC(=O)Cn2c3[n+](c4ccc(C(F)(F)F)cc42)CCCCC3)c1`, the activation is inactive: 4.7%.

As for `Cn1c(=O)n(Cc2ccccc2F)c(=O)c2c1nc1n2CCN1Cc1ccco1`, the activation was inactive: 1%.

Regarding `COc1cccc(NC(=S)N2CCn3c(nc4ccccc43)C2)c1`, the activation was inactive: 7.8%.

In the case of `CC(C)C[C@H](NC(=O)N1CCn2c1nc1ccccc12)C(=O)NCc1ccc2c(c1)OCO2`, the activation is inactive: -3.5%.

As for `N=c1n(CCN2CCCCC2)c2ccccc2n1CC(O)c1cccc(Br)c1` (stereo unspecified), the activation is inactive: 4.4%.

As for `Cc1ccc(OCC(O)Cn2c(=N)n(CCN3CCCCC3)c3ccccc32)cc1` (stereo unspecified), the activation was inactive: 0.8%.

With `CCN(CC)CCn1c(NCc2ccco2)nc2ccccc21`, the activation was inactive: -0.8%.

Regarding `Cc1nc2ccccc2n1CC(=O)N/N=C\C=C\c1ccccc1`, the activation was inactive: -0.9%.

In the case of `Cn1c(=O)c2ncn(CC(=O)N/N=C/C=C/c3ccccc3)c2n(C)c1=O`, the activation is inactive: -0.5%.

In the case of `CCN(CC)c1ccc(CNc2nc3ccccc3n2CCN2CCCCC2)cc1`, the activation is inactive: -1.5%.

As to `COc1ccccc1C(=O)Nc1ccc2c(c1)nc1n2CCN(Cc2ccccc2)C1`, the activation was inactive: -3.8%.

With `COc1cc(OC)cc(C(=O)OCCNC(=O)Cn2cnc3c2c(=O)n(C)c(=O)n3C)c1`, the activation was inactive: -3.3%.

On to `Cc1ccc2c(c1)C1CN(C)CCC1N2C(=O)c1cccc(S(=O)(=O)N2CC(C)CC(C)C2)c1` (stereo unspecified), for which the activation is inactive: -2.7%.

As for `COc1ccc(N(C(=O)Cn2cnc3ccccc32)C(C(=O)NC2CCCCC2)c2ccccc2)cc1` (stereo unspecified), the activation is inactive: -0.5%.

Consider `Cc1ccc(NC(=O)C2CC(=O)Nc3nc4ccccc4n32)c(C)c1` (stereo unspecified), for which the activation was inactive: -1.1%.

Turning to `O=C(CCNC(=O)N1CCn2c1nc1ccccc12)NCc1ccccc1`, the activation is inactive: -3.5%.

Consider `Cn1c(=O)c2c(nc(N3CCCCC3)n2CCNC2=NCCC2)n(C)c1=O`, for which the activation was inactive: -1.9%.

`O=C(Cn1c(CO)nc2ccccc21)NCc1ccc2c(c1)OCO2`: the activation was inactive: -0.6%.

For `Cc1cccc(N2CCN(C(=O)Cn3cnc4c3c(=O)n(C)c(=O)n4C)CC2)c1C`, the activation is inactive: -2.2%.

As for `O=C(Cn1c(COc2ccc(Cl)cc2)nc2ccccc21)NCC(F)(F)F`, the activation is inactive: -5%.

As for `CCN(CC)CCn1c(NC(=O)c2ccc(C)cc2)nc2ccccc21`, the activation is inactive: 31.7%.

For `CC(C)/C=N\N=C(\N)N[N+](=O)[O-]`, the activation was inactive: -2.1%.

Take `COc1ccc(CCNC(=O)CCCCCNC(=O)N2CCn3c2nc2ccccc23)cc1OC`: the activation is inactive: 3.1%.

On to `O=C(Nc1nc2ccccc2n1CCN1CCOCC1)c1ccc(COc2ccccc2Br)o1`, for which the activation is inactive: 1.7%.

In the case of `CN(C)CCCNC(=S)N1CCn2c(nc3ccccc32)C1`, the activation is inactive: 0.6%.

With `CCOC(=O)Cn1c(=O)c2c(nc3n2CCN3c2ccc(C)cc2)n(C)c1=O`, the activation is inactive: -3%.

For the compound `Fc1ccc(Cn2nnnc2CN2CCC(n3nnc4cc(C(F)(F)F)ccc43)CC2)cc1`, the activation is inactive: 0.3%.

Take `Brc1ccc(/C=N/c2nc3ccccc3n2CCN2CCOCC2)cc1`: the activation is inactive: 1.2%.

With `COCCN(C(=O)Cn1c(C(F)(F)F)nc2ccccc21)c1c(N)n(Cc2ccccc2)c(=O)[nH]c1=O`, the activation was inactive: -3%.

Consider `c1coc(CNc2nc3ccccc3n2CCN2CCOCC2)c1`, for which the activation was inactive: 6.3%.

Regarding `O=[As](O)(c1ccccc1Br)c1ccccc1Br`, the activation was inactive: -0.1%.

For the compound `O=C(CCCCCNC(=O)N1CCn2c1nc1ccccc12)N[C@H](Cc1ccccc1)C(=O)O`, the activation is inactive: 3.6%.

In the case of `O=C(Nc1nc2ccccc2n1CCN1CCCCC1)c1ccc(Cl)cc1`, the activation was inactive: 0.1%.

In the case of `CC1CN(C(=O)Cn2c(C(F)(F)F)nc3ccccc32)CC(C)O1` (stereo unspecified), the activation was inactive: -3.2%.

For the compound `CCCCNC(=O)CC1C(=O)N(Cc2ccccc2)C(C)c2nc3ccccc3n21` (stereo unspecified), the activation is inactive: 7.2%.

For the compound `Cn1c(=O)c2c(ncn2CC(=O)N2CCN(c3ccc(F)cc3)CC2)n(C)c1=O`, the activation was inactive: 0.8%.

Take `O=C(Cn1c(SCc2ccccc2)nc2ccccc21)N1CCOCC1`: the activation was inactive: 1.6%.

As to `Cc1cc(C)cc(NC(=O)Cn2c(SCc3cc(C)ccc3C)nc3ccncc32)c1`, the activation was inactive: 3.8%.

In the case of `CCOP(=O)(NC(=NC(C)c1ccccc1)NC(C)c1ccccc1)OCC` (stereo unspecified), the activation is inactive: 1.7%.

With `CC(NC(=O)Cn1c(NCCO)nc2ccccc21)C1CC2CCC1C2` (stereo unspecified), the activation was inactive: -5.2%.

For the compound `O=C(Cn1c(NCCO)nc2ccccc21)NCCc1ccc(F)cc1`, the activation is inactive: 3.3%.

In the case of `CCN(CC)CCn1c(NCc2cccc(OC)c2)nc2ccccc21`, the activation is inactive: 2.9%.

Turning to `O=C(Cn1c(-c2cscn2)nc2ccccc21)Nc1ccc2ccccc2c1`, the activation is inactive: 5%.

For `CCC1=CC2Cc3nc4ccc(Cl)cc4c(N)c3C(C1)C2` (stereo unspecified), the activation was inactive: -4%.

With `Cn1c(=O)c2c(ncn2CC(=O)N2CCCc3ccccc32)n(C)c1=O`, the activation is inactive: 1.1%.

As for `O=P1(Nc2ccccn2)COc2ccccc2OC1`, the activation was inactive: -3%.

For `COc1cccc(CNC(=O)CCCCCNC(=O)N2CCn3c2nc2ccccc23)c1`, the activation was inactive: -1.6%.
